Screening data deposited in PubChem BioAssay by Broad Institute.
DENV2 CPE: inhibitors of DENV2 cytopathic effect | AID 651640 | actives 1.7% (n = 350,000) | CPE inhibition, % at 9.99 µM | DENV2-infected cells, cytopathic effect rescue, plate reader; in the data active means CPE inhibition above about 20%, passing the limit was not always enough; inconclusive means no clear call, values can overlap the other calls; tested in BHK-21 cells;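 further: 0% = median of neutral control wells and 100% = median of positive control wells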
E-sel inducer: E-selectin induction on HUVECs; P16581; HUVEC E-selectin immunofluorescence imaging; normalized: neutral wells 0, TNF-alpha wells 100; activation, % at 7.58 µM; actives 0.37% (n = 260,000);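 active means mean E-selectin-positive cell signal at least 10% of the positive control, reached in at least 60% of replicates, without over 20% cell loss; inconclusive means no rule given, readout overlaps actives, possibly toxicity-flagged; inactive means the rest, including those meeting only one limit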
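Assay system: HUVEC, human umbilical vein endothelial cells / Amount: 3,000 HUVEC/well / Controls: TNF-alpha positive control, DMSO neutral control / Compound dosing: single concentration / Medium: EGM-2 over gelatin coat / Evaluation: percent E-selectin-positive cells / Signal: immunofluorescence imaging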
Cneo AK release: Cryptococcus neoformans lysis via adenylate kinase release; C. neoformans lysis, adenylate kinase release luminescence, 4 h; normalised: neutral wells 0, clomiphene wells 100; lysis activity, % at 15 µM; actives 0.2% (n = 360,000); AID 651654;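 active means mean lysis activity across replicates of at least 80%, whatever share of replicates individually reach that level; inactive means mean lysis activity below 80%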
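Material: C. neoformans cells; Schedule: 4 h static compound exposure, 37 °C, read 1 h post-reagent; Measured by: adenylate kinase release luminescence; Read-out: signal increase indicating cell lysis; Controls: Clomiphene as positive lysis control.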
UUG fidelity: modulators of start codon recognition fidelity in yeast; S. cerevisiae UUG-firefly luciferase reporter, luminescence/redox ratio; AID 602363; 350,000 tested, 0.13% active; activity score, % at 18.7 µM;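 active = replicate mean at a twofold rise or more, about +100% in these data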;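 also: firefly luciferase made from a UUG start codon reports start codon fidelity; reporter light over untreated wells divided by growth signal over untreated wells; some hits fall short of that in this replicate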
Numbers without * were called inactive; ? = inconclusive; . = no result given. The list is not random: actives were taken first. Their share in the collection is about 1.8%.

Values in the order: DENV2 CPE | E-sel inducer | Cneo AK release | UUG fidelity
(1) CC1OC(CCc2cccc(Cl)c2)Cc2[nH]c(=S)[nH]c(=O)c21 (stereo not given)
→ 40* | 1 | . | .
(2) C[C@H](CO)N1C[C@H](C)[C@H](CN(C)S(C)(=O)=O)Oc2ccc(NC(=O)CCC(F)(F)F)cc2CC1=O
→ 14 | -8 | -9 | 5
(3) C/C(=N/NC(=O)CNc1ccc(C)cc1)c1ccc(Br)s1
→ 4 | . | -6 | -14
(4) COc1ccccc1NCC(=O)N/N=C(\C)c1ccc(Br)s1
→ 23* | . | -3 | -11
(5) CCCNC(=O)Nc1ccc2c(c1)C(=O)N(C)[C@H]1CC[C@H](CC(=O)NCC3CCCCC3)O[C@H]1CO2
→ -5 | 0 | 5 | -6
(6) CCN1/C(=N\N)c2cccc3cccc1c23
→ ? | 37* | . | .
(7) CCC(C)NC(=O)CN1C(=O)c2cccc3cccc1c23 (stereo not given)
→ -2 | . | 4 | -37
(8) O=C(C[C@@H]1C[C@H]2c3cc(NC(=O)c4cccnc4)ccc3O[C@H]2[C@H](CO)O1)NCc1ccccc1
→ 2 | 0 | -2 | 15
(9) COc1ccc2c3c([nH]c2c1)[C@H](CO)N(Cc1ccccn1)CC31CCN(C(C)=O)CC1
→ 7 | 0 | . | .
(10) COc1ccc2c3c([nH]c2c1)[C@H](CO)N(Cc1ccccn1)CC31CN(C(C)=O)C1
→ 47* | 0 | . | .
(11) COc1ccc2c3c([nH]c2c1)[C@@H](CO)N(Cc1cccc(F)c1)CC31CN(Cc2ccccn2)C1
→ 39* | 0 | . | .
(12) C[C@@H]1CCCCO[C@@H](CN(C)S(C)(=O)=O)[C@H](C)CN([C@@H](C)CO)C(=O)c2cc(NC(=O)CCC(F)(F)F)ccc2O1
→ -7 | 0 | -2 | -11
(13) C[C@@H]1CN([C@@H](C)CO)C(=O)Cc2cc(NC(=O)c3ccncc3)ccc2O[C@H]1CN(C)Cc1ccc(Oc2ccccc2)cc1
→ 2 | 313* | 4 | 5
(14) CC(C)NC(=O)Nc1ccc2c(c1)CC(=O)N([C@@H](C)CO)C[C@H](C)[C@H](CN(C)Cc1ccc(Oc3ccccc3)cc1)O2
→ -17 | 16 | -3 | 2
(15) CC(C)NC(=O)Nc1ccc2c(c1)CC(=O)N([C@H](C)CO)C[C@H](C)[C@@H](CN(C)Cc1ccc(Oc3ccccc3)cc1)O2
→ 8 | 37* | -3 | -4

Record cards, from the list above:
Entry for `COc1ccc2c3c([nH]c2c1)[C@H](CO)N(Cc1ccccn1)CC31CCN(C(C)=O)CC1` → DENV2 CPE: 7; E-sel inducer: 0; Cneo AK release: .; UUG fidelity: .
Entry for `COc1ccc2c3c([nH]c2c1)[C@@H](CO)N(Cc1cccc(F)c1)CC31CN(Cc2ccccn2)C1` → DENV2 CPE: 39*; E-sel inducer: 0; Cneo AK release: .; UUG fidelity: .

The results go on.
Values in the order: DENV2 CPE | E-sel inducer | Cneo AK release | UUG fidelity
(16) C[C@@H]1CN([C@H](C)CO)C(=O)Cc2cc(NC(=O)c3ccncc3)ccc2O[C@@H]1CN(C)Cc1ccc(Oc2ccccc2)cc1
→ 3 | -6 | 0 | 2
(17) CC(C)NC(=O)Nc1ccc2c(c1)CC(=O)N([C@@H](C)CO)C[C@@H](C)[C@@H](CN(C)Cc1ccc(Oc3ccccc3)cc1)O2
→ -4 | -4 | 109* | 23
(18) CC(C)NC(=O)Nc1ccc2c(c1)CC(=O)N([C@H](C)CO)C[C@@H](C)[C@H](CN(C)Cc1ccc(Oc3ccccc3)cc1)O2
→ -1 | 45* | -2 | 1
(19) CO[C@H]1CN(C)C(=O)c2cc(NC(=O)C3CCOCC3)ccc2OC[C@H](C)N(Cc2nccs2)C[C@@H]1C
→ -2 | 0 | 0 | 1
(20) CCS(=O)(=O)N[C@H]1C=C[C@@H](CC(=O)NCc2ccc(F)cc2)O[C@H]1CO
→ -7 | . | 21 | -9
(21) CC(C)NC(=O)Nc1ccc2c(c1)CC(=O)N([C@H](C)CO)C[C@H](C)[C@@H](CN(C)Cc1ccccc1)O2
→ -6 | 0 | 4 | -9
(22) CC(C)NC(=O)Nc1ccc2c(c1)CC(=O)N([C@@H](C)CO)C[C@@H](C)[C@H](CN(C)Cc1ccc(-c3ccccc3)cc1)O2
→ 30* | . | 0 | 8
(23) C[C@@H]1CN([C@H](C)CO)C(=O)Cc2cc(NC(=O)Nc3ccc(C(F)(F)F)cc3)ccc2O[C@H]1CN(C)Cc1ccc(Oc2ccccc2)cc1
→ 3 | 446* | -4 | -6
(24) Cc1ccc(S(=O)(=O)N(C)C[C@H]2Oc3ccc(NC(=O)C4CCCCC4)cc3CC(=O)N([C@@H](C)CO)C[C@@H]2C)cc1
→ 6 | 1 | 15 | -10
(25) CN(C)CCCNC(=O)C[C@@H]1C=C[C@@H](NC(=O)Cc2cccnc2)[C@H](CO)O1
→ -3 | 0 | 0 | -6
(26) CC(=O)N(C)C[C@H]1Oc2cc(-c3ccncc3)ccc2S(=O)(=O)N([C@H](C)CO)C[C@@H]1C
→ 19 | 0 | 5 | -5
(27) CC(=O)N(C)C[C@@H]1Oc2cc(-c3ccncc3)ccc2S(=O)(=O)N([C@H](C)CO)C[C@@H]1C
→ 29* | 1 | -4 | -7
(28) C/C=C/c1ccc2c(c1)O[C@H](CN(C)C(C)=O)[C@H](C)CN([C@@H](C)CO)S2(=O)=O
→ 45* | 0 | 41 | 20
(29) CC(C)(CN1CCN(Cc2ccccc2)CC1)NS(=O)(=O)c1ccc(Cl)cc1
→ 30* | 0 | -3 | 1
(30) CNC(=O)C[C@@H]1CC[C@@H]2[C@H](COc3ccc(NC(=O)c4cccc(OC)c4)cc3C(=O)N2C)O1
→ ? | 0 | 1 | -5
(31) Cc1ccc(NC(=O)CCN2CCN(CCO)CC2)cc1Br
→ 20* | . | -1 | -16
(32) CC(=O)Nc1ccc(NC(=O)CSc2nnc(-c3cccs3)n2N)cc1
→ 60* | . | -1 | -9
(33) C[C@@H]1CN([C@H](C)CO)C(=O)c2cccc(NC(=O)C3CCOCC3)c2O[C@H]1CN(C)C(=O)Nc1ccccc1
→ 1 | 173* | 0 | -2
(34) C[C@H](CO)N1C[C@H](C)[C@@H](CN(C)C(=O)Nc2ccccc2)Oc2c(NC(=O)NC3CCCCC3)cccc2C1=O
→ 64* | 0 | 1 | 23
(35) CC(C)NC(=O)Nc1cccc2c1O[C@H](CN(C)C(=O)Nc1ccccc1)[C@H](C)CN([C@H](C)CO)C2=O
→ 42* | 0 | -4 | 4
(36) O=C(CC(=O)Nc1ccccc1C(F)(F)F)Nc1ccccc1C(F)(F)F
→ -2 | 0 | -1 | -28
(37) O=C(Nc1ccccc1C(F)(F)F)C(O)(c1ccccc1)C1CCCCC1 (stereo not given)
→ 50* | 0 | 5 | -15
(38) COc1ccc2c3c(n(C)c2c1)[C@@H](CO)N(Cc1ccccc1F)CC31CCN(C(=O)C2CCCC2)CC1
→ 3 | -1 | . | .
(39) CC(C)C(OC(=O)c1nsc(Cl)c1Cl)C(=O)NCc1ccccc1 (stereo not given)
→ 0 | 32* | 0 | -26
(40) CN1c2ccc(C3=CCCCC3)cc2[C@H]2[C@H](CCN2C(=O)C2CCCCC2)[C@H]1CO
→ 12 | -1 | . | .
(41) O=C(NCc1ccc(Cl)c(Cl)c1)c1cc(C2CCCCN2C(=O)OCCF)on1 (stereo not given)
→ 30* | 2 | 14 | -1
(42) COC(=O)N1CCCCC1c1cc(C(=O)Nc2ccc3c(c2)OCO3)no1 (stereo not given)
→ 4 | 0 | -7 | -14
(43) O=C(NCc1ccc(F)cc1)c1cc(C2CCCCN2C(=O)CCCc2ccccc2)on1 (stereo not given)
→ 9 | 83* | -1 | -17
(44) O=C(Nc1ccc2c(c1)OCO2)c1cc(C2CCCCN2C(=O)OCCF)on1 (stereo not given)
→ 20* | 0 | 3 | 1
(45) COc1ccccc1CNC(=O)C[C@H]1CC[C@@H]2[C@H](COC[C@H](O)CN2C(=O)Nc2ccc(F)cc2)O1
→ -5 | 0 | -2 | .

Rewritten screen by screen: three of the compounds above.
31. Cc1ccc(NC(=O)CCN2CCN(CCO)CC2)cc1Br
2. C[C@H](CO)N1C[C@H](C)[C@H](CN(C)S(C)(=O)=O)Oc2ccc(NC(=O)CCC(F)(F)F)cc2CC1=O
6. CCN1/C(=N\N)c2cccc3cccc1c23

| compound no. | 31 | 2 | 6 |
| --- | --- | --- | --- |
| DENV2 CPE | 20* | 14 | ? |
| E-sel inducer | . | -8 | 37* |
| Cneo AK release | -1 | -9 | . |
| UUG fidelity | -16 | 5 | . |
